The values below come from BindingDB's records for US9090618.

Common to all, as to assay: Radioligand Binding Assay
Common to all, as to conditions: pH 7.4

For experiment [1], the target named is Mu-type opioid receptor (Homo sapiens, UniProt P35372).
For experiment [2], the target named is Nociceptin receptor (Homo sapiens, UniProt P41146).
The target of experiment [3] is Kappa-type opioid receptor (Homo sapiens, UniProt P41145).
Experiment [4] deals with Delta-type opioid receptor (Homo sapiens, UniProt P41143).

Structures are written as SMILES.

Usually Ki stands for a measure of affinity in units of concentration, obtained from inhibition or displacement. With `O=C(O)CCN1CCC[C@H]1Cc1nc2ccccc2n1[C@H]1C[C@H]2CCC[C@@H](C1)N2[C@@H]1C[C@@H]2CCCC[C@@H](C2)C1`, the affinity in experiment [1] corresponds to a Ki of 4.33 µM. On to `NC(=O)/N=c1\[nH]c2ccccc2n1C1CCN(C2CCCCCCC2)CC1`, for which the Ki in experiment [2] was determined as 0.0367 µM. Turning to `CONC(=N)/N=c1\[nH]c2ccccc2n1C1CCN(C2CCCCCCC2)CC1`, the results for the Ki in experiment [2] and in experiment [3] were 0.0224 µM and 0.0262 µM, respectively.

Consider `O=C(O)CNc1nc2ccccc2n1C1C[C@H]2CCC[C@@H](C1)N2C1CCCCCCCCC1` (stereo partly drawn), for which the Ki in experiment [1] came out at 1.18 µM. `O=C(O)CN1CCC[C@@H]1c1nc2ccccc2n1[C@H]1C[C@H]2CCC[C@@H](C1)N2[C@@H]1C[C@@H]2CCCC[C@@H](C2)C1`: in experiment [3], the Ki came to 0.0652 µM.

Turning to `CCOC(=N)/N=c1\[nH]c2ccccc2n1C1CCN(C2CCCCCCC2)CC1`, in experiment [2], the inhibition constant (Ki) was 0.0175 µM. `O=C(O)CN1CCCC[C@H]1c1nc2ccccc2n1[C@H]1C[C@H]2CCC[C@@H](C1)N2[C@@H]1C[C@@H]2CCCC[C@@H](C2)C1`: affinity in experiment [4] was put at a Ki of 6.79 µM. `CS(=O)(=O)NCCN1CC[C@@H](Cc2nc3ccccc3n2[C@H]2C[C@H]3CCC[C@@H](C2)N3[C@@H]2C[C@@H]3CCCC[C@@H](C3)C2)C1` came in with an inhibition constant Ki in experiment [3] of 0.0583 µM. As for `O=C(O)CN1CCC[C@H]1Cc1nc2ccccc2n1[C@H]1C[C@H]2CCC[C@@H](C1)N2[C@@H]1C[C@@H]2CCCC[C@@H](C2)C1`, the Ki in experiment [3] stood at 0.254 µM.

Regarding `COC(=O)/N=c1\n(CC(N)=O)c2ccccc2n1C1CCN(C2CCCCCCC2)CC1`, in experiment [2], the Ki is 0.0371 µM. For `NC(=O)CN1CCC[C@H]1c1nc2ccccc2n1[C@H]1C[C@H]2CCC[C@@H](C1)N2[C@@H]1C[C@@H]2CCCC[C@@H](C2)C1`, in experiment [1], affinity was put at a Ki of 1.67 µM.

For `O=C(O)CCN1CCC[C@H](c2nc3ccccc3n2[C@H]2C[C@H]3CCC[C@@H](C2)N3[C@@H]2C[C@@H]3CCCC[C@@H](C3)C2)C1`, affinity in experiment [3] was put at a Ki of 0.254 µM.
